We go through 1 compound from ChEMBL document CHEMBL2331117 (J Med Chem, 2013).

Molecules are shown by their SMILES. Where only a bound is given, the exact number is not on record here.

The target of this test is T1, Mitogen-activated protein kinase kinase kinase 5 (Homo sapiens, UniProt Q99683).
T1 sequence (Q99683 whole entry): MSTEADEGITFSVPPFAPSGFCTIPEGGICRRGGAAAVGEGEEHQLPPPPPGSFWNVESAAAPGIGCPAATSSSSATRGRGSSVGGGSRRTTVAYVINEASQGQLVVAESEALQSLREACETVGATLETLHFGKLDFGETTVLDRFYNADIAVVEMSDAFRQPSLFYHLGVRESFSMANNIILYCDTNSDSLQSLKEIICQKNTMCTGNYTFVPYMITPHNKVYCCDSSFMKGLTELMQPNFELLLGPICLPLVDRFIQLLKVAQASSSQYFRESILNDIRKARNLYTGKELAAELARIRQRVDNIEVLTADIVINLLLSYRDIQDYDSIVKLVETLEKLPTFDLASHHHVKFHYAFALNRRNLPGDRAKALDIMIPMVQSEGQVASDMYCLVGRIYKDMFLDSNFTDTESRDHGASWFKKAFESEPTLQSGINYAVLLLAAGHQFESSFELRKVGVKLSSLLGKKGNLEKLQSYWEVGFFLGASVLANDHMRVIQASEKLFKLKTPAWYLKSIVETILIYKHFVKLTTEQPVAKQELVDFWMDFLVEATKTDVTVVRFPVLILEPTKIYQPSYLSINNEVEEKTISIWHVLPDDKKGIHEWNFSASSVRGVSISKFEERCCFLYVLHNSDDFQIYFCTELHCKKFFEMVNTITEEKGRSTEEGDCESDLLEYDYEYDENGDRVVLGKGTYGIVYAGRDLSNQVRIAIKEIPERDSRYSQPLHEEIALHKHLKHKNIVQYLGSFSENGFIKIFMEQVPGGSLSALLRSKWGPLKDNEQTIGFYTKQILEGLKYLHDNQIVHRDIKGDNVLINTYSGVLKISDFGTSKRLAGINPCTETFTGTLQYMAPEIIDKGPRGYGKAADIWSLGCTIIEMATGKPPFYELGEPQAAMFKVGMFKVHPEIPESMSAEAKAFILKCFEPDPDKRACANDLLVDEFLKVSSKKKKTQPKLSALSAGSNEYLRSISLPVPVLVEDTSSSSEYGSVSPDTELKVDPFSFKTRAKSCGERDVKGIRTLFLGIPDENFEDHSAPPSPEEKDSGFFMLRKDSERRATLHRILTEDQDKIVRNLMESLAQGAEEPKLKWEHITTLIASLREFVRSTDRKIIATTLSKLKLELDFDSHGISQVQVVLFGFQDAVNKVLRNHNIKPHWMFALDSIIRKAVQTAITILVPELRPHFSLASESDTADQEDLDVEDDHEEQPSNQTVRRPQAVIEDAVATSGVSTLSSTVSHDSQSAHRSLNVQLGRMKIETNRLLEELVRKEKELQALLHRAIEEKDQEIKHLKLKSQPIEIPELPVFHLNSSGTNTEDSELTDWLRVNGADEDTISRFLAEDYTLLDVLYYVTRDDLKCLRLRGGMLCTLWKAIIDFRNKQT
Description: Inhibition of ASK1 (unknown origin).

For the compound `Cc1c(C(=O)N2CCOc3ccc(-c4ccc(N)nc4)cc3C2)ccc(S(C)(=O)=O)c1F`, the IC50 was > 10 µM.

Broadly, the IC50 is the concentration needed to halve the response being measured. The low end stands for greater potency, the high end for weaker potency.
